Exposed polarity of cyclic peptides

Collected by the curators of CycPeptMPDB (Li et al. 2023) from Boehm et al. 2017, doi:10.1021/acs.jmedchem.7b01028.

EPSA reports exposed polarity as measured by chromatography; lower is less polar.

CC(C)(C)C[C@@H]1NC(=O)[C@@H](Cc2ccccc2)NC(=O)[C@H](CCCc2ccccc2)NC(=O)CN(CCCc2ccccc2)C(=O)[C@H]2CCCN2C(=O)[C@H](Cc2cccnc2)NC1=O has EPSA 79 Å2. For O=C1CN(CCCc2ccccc2)C(=O)[C@H]2CCCN2C(=O)[C@H](Cc2cccnc2)NC(=O)[C@H](Cc2cscn2)NC(=O)[C@@H](Cc2ccccc2)NC(=O)[C@H](CCCc2ccccc2)N1 the data give EPSA 89 Å2. O=C1CN(CCCc2ccccc2)C(=O)[C@H]2CCCN2C(=O)[C@H](Cc2cccnc2)NC(=O)[C@H](CCCc2ccccc2)NC(=O)[C@@H](Cc2ccccc2)NC(=O)[C@H](CCCc2ccccc2)N1 has EPSA 90 Å2. The entry for O=C1CN(CCCc2ccccc2)C(=O)[C@H]2CCCN2C(=O)[C@H](Cc2cccnc2)NC(=O)[C@H](Cc2c[nH]c3ccccc23)NC(=O)[C@@H](Cc2ccccc2)NC(=O)[C@H](CCCc2ccccc2)N1 lists EPSA 104 Å2. The entry for CC(C)(C)C[C@@H]1NC(=O)[C@@H](Cc2ccccc2)NC(=O)[C@H](CC2CCCCC2)NC(=O)CN(CCCc2ccc(F)cc2F)C(=O)[C@H]2CCCN2C(=O)[C@H](Cc2cscn2)NC1=O lists EPSA 74 Å2. For CC(C)(C)C[C@@H]1NC(=O)[C@@H](Cc2ccccc2)NC(=O)[C@H](Cc2ccc(F)cc2)NC(=O)CN(CCCc2ccc(F)cc2F)C(=O)[C@H]2CCCN2C(=O)[C@H](Cc2cscn2)NC1=O the data give EPSA 74 Å2. CC(C)(C)C[C@@H]1NC(=O)CN(CCCc2ccc(F)cc2F)C(=O)[C@H]2CCCN2C(=O)[C@H](Cc2cscn2)NC(=O)[C@H](CC(C)(C)C)NC(=O)[C@@H](Cc2ccccc2)NC1=O is reported with EPSA 70 Å2. CC(C)(C)C[C@@H]1NC(=O)[C@@H](Cc2ccccc2)NC(=O)[C@H](Cc2ccccc2)NC(=O)CN(CCCc2ccccc2)C(=O)[C@H]2CCCN2C(=O)[C@H](Cc2cscn2)NC1=O is reported with EPSA 79 Å2.

CN1C(=O)[C@H](CCCc2ccccc2)NC(=O)CN(CCCc2ccccc2)C(=O)[C@H]2CCCN2C(=O)[C@H](Cc2cccnc2)NC(=O)[C@H](Cc2cscn2)N(C)C(=O)[C@H]1Cc1ccccc1 is reported with EPSA 83 Å2. The entry for CN1C(=O)[C@@H](Cc2ccccc2)NC(=O)[C@H](CCCc2ccccc2)NC(=O)CN(CCCc2ccccc2)C(=O)[C@H]2CCCN2C(=O)[C@H](Cc2cccnc2)NC(=O)[C@@H]1Cc1cscn1 lists EPSA 86 Å2. Listed for CC(C)(C)C[C@@H]1NC(=O)[C@@H](Cc2ccccc2)NC(=O)[C@H](Cc2ccccc2)NC(=O)CN(CCCc2ccc(F)cc2F)C(=O)[C@H]2CCCN2C(=O)[C@H](Cc2cscn2)NC1=O: EPSA 74 Å2. CC(C)(C)C[C@@H]1NC(=O)[C@@H](Cc2ccccc2)NC(=O)[C@H](CCCc2ccccc2)NC(=O)CN(CCCc2ccccc2)C(=O)[C@H]2CCCN2C(=O)[C@H](Cc2cscn2)NC1=O is reported with EPSA 80 Å2. For CC(C)(C)C[C@@H]1NC(=O)[C@@H](Cc2ccccc2)NC(=O)[C@H](COCc2ccccc2)NC(=O)CN(CCCc2ccc(F)cc2F)C(=O)[C@H]2CCCN2C(=O)[C@H](Cc2cscn2)NC1=O the data give EPSA 77 Å2. Listed for O=C1CN(CCCc2ccccc2)C(=O)[C@H]2CCCN2C(=O)[C@H](Cc2cccnc2)NC(=O)[C@H](CCc2ccccc2)NC(=O)[C@@H](Cc2ccccc2)NC(=O)[C@H](CCCc2ccccc2)N1: EPSA 89 Å2.

The first 2 entries again:

{"smiles": "CC(C)(C)C[C@@H]1NC(=O)[C@@H](Cc2ccccc2)NC(=O)[C@H](CCCc2ccccc2)NC(=O)CN(CCCc2ccccc2)C(=O)[C@H]2CCCN2C(=O)[C@H](Cc2cccnc2)NC1=O", "EPSA (Å2)": "79"}
{"smiles": "O=C1CN(CCCc2ccccc2)C(=O)[C@H]2CCCN2C(=O)[C@H](Cc2cccnc2)NC(=O)[C@H](Cc2cscn2)NC(=O)[C@@H](Cc2ccccc2)NC(=O)[C@H](CCCc2ccccc2)N1", "EPSA (Å2)": "89"}

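Conditions beyond the assay type are not listed; see the original paper. The list need not hold all peptides of the study.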